Source: US20090258877A1, “TRIAZOLOTRIAZINES AND TRIAZOLOPYRAZINES AND THEIR USE” (BAYER HEALTHCARE AG, priority 2007, published 2009)

The chains behind the UniProt entries cited, without tags or fusion partners.
UniProt P49841, whole entry: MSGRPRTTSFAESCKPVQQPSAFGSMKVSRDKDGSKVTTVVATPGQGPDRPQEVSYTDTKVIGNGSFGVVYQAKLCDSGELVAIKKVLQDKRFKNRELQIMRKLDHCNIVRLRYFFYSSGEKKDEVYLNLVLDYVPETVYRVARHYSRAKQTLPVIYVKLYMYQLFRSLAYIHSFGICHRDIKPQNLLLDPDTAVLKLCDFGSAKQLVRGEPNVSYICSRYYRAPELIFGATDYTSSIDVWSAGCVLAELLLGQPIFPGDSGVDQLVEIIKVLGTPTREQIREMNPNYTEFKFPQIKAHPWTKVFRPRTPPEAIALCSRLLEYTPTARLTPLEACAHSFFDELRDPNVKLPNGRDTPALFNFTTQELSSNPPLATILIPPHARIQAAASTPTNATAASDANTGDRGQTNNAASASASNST

Target: GSK3β (Homo sapiens, UniProt P49841)
Experiment: GSK3β biochemical in vitro assay (coupled pyruvate kinase/lactate dehydrogenase, NADH fluorescence)
Conditions: 5 nM GSK3β, 50 μM ATP, 40 μM GSM substrate, 30° C., 2 hours
Method: The inhibitory activity of active substances is determined in a biochemical assay. The ingredients required for this purpose are mixed in a black 384-well microtitre plate with transparent base (from Greiner, catalogue number 781092). […]
The reaction is incubated at 30° C. for 2 hours and then the resulting fluorescence is measured in a Tecan Safire-XFLUOR4 instrument, version V4.50 (serial number 12901300283) with the specifications: measurement mode—fluorescence measured from below, excitation wavelength 340 nm, emission wavelength 465 nm, slit width excitation 5 nm, slit width emission 5 nm, gain mode 120, delay 0 μs, number of light flashes per measurement 3, and an integration time of 40 μs.
The activity of the active substances is calculated in relation to these 0% and 100%.

Compound | IC50 [nM]
Nc1nc(NC2CCCN(c3nc(-c4ccc(Cl)cc4Cl)nn4cnnc34)C2)ccc1C(=O)C(F)(F)F (centres unmarked) | 1.3
Nc1nc(NC2CCCN(c3nc(-c4ccc(Cl)cc4Cl)nn4cnnc34)C2)ccc1[N+](=O)[O-] (centres unmarked) | 4.3
